# Assay: Free CBZ fraction estimation
# Format: physicochemical
structure (smiles),measurement,setting,value
"NC(=O)N1c2ccccc2C=Cc2ccccc21 [CBZ, carbamazepine]",Free fraction of CBZ (ffree),F127 1.33 mmol·L-1,0.647
same,Free fraction of CBZ (ffree),F127 2.30 mmol·L-1,0.350
same,Free fraction of CBZ (ffree),SBE-β-CD 6.89 mmol·L-1,0.288
same,Free fraction of CBZ (ffree),SBE-β-CD 13.78 mmol·L-1,0.168
same,Free fraction of CBZ (ffree),SBE-β-CD 20.67 mmol·L-1,0.119
same,Free fraction of CBZ (ffree),no excipient (0 mmol·L-1),1

# From article PMC10893053, “Mechanistic Insight in Permeability through Different Membranes in the Presence of Pharmaceutical Excipients: A Case of Model Hydrophobic Carbamazepine” (Pharmaceutics, 2024)
